US9173935B2, “Phospholipid drug analogs” (Telormedix SA, priority 2010, dated 2015)

Assay: Serum exposure after intravesical chronic treatment
Protocol: Serum samples were taken at time points: day 0, 2 hours, day 1, 24 hours, and day 6, 2 hours.
The plate was shaken for 10 minutes and filtered under vacuum (5-10 mm Hg). […] The plate was shaken for 10 minutes and filtered under vacuum (5-10 mm Hg). Samples were evaporated and re-suspended in 70 microliters of acetonitrile/methanol 1:1. […] Column: Acquity BEH C18 50×2.1 mm 1.7 micrometers; injection volume 5 microliters, T column 50° C. […] Column: Acquity BEH C8 50×2.1 mm 1.7 micrometers injection. volume 10 microliters, T column 50° C.

[1] = Day 6, 2 hours, LLOQ 0.5 ng/ml SC12, 2.5 ng/ml Imiquimod

CC(C)Cn1cnc2c(N)nc3ccccc3c21 [Imiquimod, reference compound]
Levels in serum, Mean ± S.D. (Day 0, 2 hours): 6.2 ± 0.8 ng/mL | Levels in serum, individual mice (Day 0, 2 hours, intravesical Imiquimod 208 nmol or SC12 206.5 nmol, LLOQ 0.5 ng/ml SC12, 2.5 ng/ml Imiquimod): 6.4 ng/mL and 6.8 ng/mL and 5.3 ng/mL | Levels in serum, Mean ± S.D. [1]: 8.9 ± 5.6 ng/mL | Levels in serum, individual mice [1]: 2.8 ng/mL and 8.1 ng/mL and 16.3 ng/mL and 8.7 ng/mL

Values joined by “and” are separate entries in the source; they are usually repeats but may differ in a detail not shown here. Equal values may be shown once.
